From patent publication US20090061024A1, “COMPOSITIONS AND METHODS EMPLOYING NMDA ANTAGONISTS FOR ACHIEVING AN ANESTHETIC-SPARING EFFECT” (Wyeth, priority 2007, published 2009)

Tests used:
[1] = test system: dogs anesthetized with isoflurane; test: Isoflurane MAC after perzinfotel by IV, SQ, IM routes, with or without butorphanol (Example 3, Latin square crossover); settings: for Mean MAC during isoflurane anesthesia, 1st MAC: n = 6 dogs
[2] = test system: dogs anesthetized with isoflurane; settings: dog, in vivo
[3] = test system: dogs anesthetized with isoflurane; test: Hemodynamic and respiratory parameters, concurrent with MAC determinations (Example 1); assay type: in vivo; settings: IV perzinfotel 5 mg/kg, 1st

## O=c1c2c(c1=O)N(CCP(=O)(O)O)CCCN2 [Perzinfotel, [2-(8,9-dioxo-2,6-diazabicyclo[5.2.0]non-1-(7)-en-2-yl)ethyl]phosphonic acid]
[1]; Treatment A: 20 mg/Kg IV
  Mean MAC during isoflurane anesthesia, 1st MAC: 0.65%
[1]; Treatment C: 20 mg/Kg IM
  MAC change versus CTRL, 1st MAC: −38%
[1]; Treatment C: 20 mg/Kg IM, 2nd MAC
  MAC change versus CTRL, 2nd MAC: −38%
[1]; Treatment E: 30 mg/Kg IM
  MAC change versus CTRL, 1st MAC: −44%
  Mean MAC during isoflurane anesthesia, 1st MAC: 0.63%
[2]
  Mean MAC of isoflurane required to maintain anesthesia, 1st: 0.87
  Mean MAC of isoflurane required to maintain anesthesia, 2nd: 0.87
  Mean MAC of isoflurane required to maintain anesthesia, Avg.: 0.87
[3]
  MAP: 90 mm Hg
